# Assay results reported in paper PMC1868657 (International Journal of Medical Sciences, 2007).
# Target: T1, human SGLT2 (Homo sapiens, UniProt P31639)
# T1 sequence (P31639 1-672): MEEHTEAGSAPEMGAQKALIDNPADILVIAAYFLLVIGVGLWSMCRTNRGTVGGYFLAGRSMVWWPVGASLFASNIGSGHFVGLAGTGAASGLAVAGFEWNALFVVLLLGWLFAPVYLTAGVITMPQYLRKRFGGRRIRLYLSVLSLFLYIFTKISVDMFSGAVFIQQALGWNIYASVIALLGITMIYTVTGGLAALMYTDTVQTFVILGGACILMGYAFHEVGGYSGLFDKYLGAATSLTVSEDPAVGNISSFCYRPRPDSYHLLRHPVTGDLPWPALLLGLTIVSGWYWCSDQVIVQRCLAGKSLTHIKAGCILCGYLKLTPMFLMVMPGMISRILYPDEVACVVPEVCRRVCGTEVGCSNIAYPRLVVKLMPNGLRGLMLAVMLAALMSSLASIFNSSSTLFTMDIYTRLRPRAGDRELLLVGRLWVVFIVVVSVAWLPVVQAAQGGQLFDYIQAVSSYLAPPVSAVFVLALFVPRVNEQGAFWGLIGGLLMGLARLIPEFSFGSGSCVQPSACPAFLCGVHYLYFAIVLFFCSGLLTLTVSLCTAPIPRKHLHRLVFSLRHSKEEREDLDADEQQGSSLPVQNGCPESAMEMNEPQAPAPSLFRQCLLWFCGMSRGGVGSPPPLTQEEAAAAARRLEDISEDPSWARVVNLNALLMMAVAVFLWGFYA
# Assay: Sodium-dependent [14C]AMG uptake in CHO cells expressing hSGLT2
# Format: cell-based
# Conditions: read-out: percent inhibition of sodium-dependent AMG-uptake, hSGLT2
smiles,measurement,value
O=C(CCc1ccc(O)cc1)c1c(O)cc(O)cc1O[C@@H]1O[C@H](CO)[C@@H](O)[C@H](O)[C@H]1O [Phlorizin],inhibition at 10 µM,33.4 ± 1.8%
